From US9527887B2 (priority 2011, dated 2016) come the findings set out here.

Chains of the proteins cited; added tags and fusions are not shown. Residues count along the entry.
UniProt P25092, 24-1073 limits assumed: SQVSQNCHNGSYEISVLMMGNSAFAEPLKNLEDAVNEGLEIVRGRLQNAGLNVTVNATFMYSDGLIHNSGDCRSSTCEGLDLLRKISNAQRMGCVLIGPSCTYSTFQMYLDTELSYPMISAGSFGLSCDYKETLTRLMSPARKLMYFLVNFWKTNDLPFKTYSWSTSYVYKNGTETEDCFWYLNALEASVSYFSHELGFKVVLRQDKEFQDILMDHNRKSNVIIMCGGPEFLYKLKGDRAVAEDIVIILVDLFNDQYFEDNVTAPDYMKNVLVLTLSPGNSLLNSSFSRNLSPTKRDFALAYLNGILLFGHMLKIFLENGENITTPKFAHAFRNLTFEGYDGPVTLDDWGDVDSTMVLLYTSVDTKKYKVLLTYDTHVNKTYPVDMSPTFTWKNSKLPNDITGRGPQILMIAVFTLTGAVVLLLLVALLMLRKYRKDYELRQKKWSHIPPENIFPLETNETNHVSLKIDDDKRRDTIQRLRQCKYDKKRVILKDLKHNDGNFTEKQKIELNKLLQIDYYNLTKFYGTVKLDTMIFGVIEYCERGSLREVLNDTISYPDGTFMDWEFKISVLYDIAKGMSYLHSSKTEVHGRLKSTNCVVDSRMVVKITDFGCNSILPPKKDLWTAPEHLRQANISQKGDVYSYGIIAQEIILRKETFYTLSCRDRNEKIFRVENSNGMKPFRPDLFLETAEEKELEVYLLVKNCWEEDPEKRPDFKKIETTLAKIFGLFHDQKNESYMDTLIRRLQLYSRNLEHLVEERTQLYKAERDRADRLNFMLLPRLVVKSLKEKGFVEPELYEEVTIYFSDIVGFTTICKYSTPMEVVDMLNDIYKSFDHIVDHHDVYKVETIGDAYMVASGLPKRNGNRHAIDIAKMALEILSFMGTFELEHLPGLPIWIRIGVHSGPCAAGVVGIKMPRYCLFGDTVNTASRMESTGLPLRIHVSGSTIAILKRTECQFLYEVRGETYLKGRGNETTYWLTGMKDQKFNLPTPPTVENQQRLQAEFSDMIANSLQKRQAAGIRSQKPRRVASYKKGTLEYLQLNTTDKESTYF

Like-named read-outs stand apart in the source and are kept apart here.

In the assay the target is GC-C (Homo sapiens, UniProt P25092). In kind it is cell-based. The conditions noted are these: for EC50: 30 min at 37° C., IBMX.

Usually EC50 stands for the concentration at which the effect is half-maximal. Turning to `CC(C)C[C@@H]1NC(=O)[C@H](CCC(=O)O)NC(=O)[C@@H]2CSSC[C@@H]3NC(=O)[C@H](C)NC(=O)[C@@H]4CCCN4C(=O)[C@H](CC(N)=O)NC(=O)[C@H](CSSC[C@H](NC(=O)[C@H](CC(=O)O)NC(=O)[C@H](CC(=O)O)NC(=O)CCN)C(=O)N2)NC(=O)[C@H](CSSC[C@@H](C(=O)N[C@@H](Cc2ccc(O)cc2)C(=O)O)NC(=O)CNC(=O)[C@H]([C@@H](C)O)NC3=O)NC1=O` [Peptide 15, dADDCCELCCNPACTGCY], the “Ratio EC50 pH 8/EC50 pH 5” value (T84 cGMP assay) came out at 110.2. Further, the EC50 is, setting by setting: (pH 5 (DMEM+20 mM MES), read-out: cGMP response in T84 cells EC50 nM pH 5) 6 nM; (pH 8 (DMEM+50 mM sodium bicarbonate), read-out: cGMP response in T84 cells EC50 nM pH 8) 661 nM.
